Assay results published in patent publication US20260384450A1, “MACROCYCLIC AMINOPYRIDINE COMPOUNDS AS EGFR INHIBITORS” (published 2026).
Read-outs that look alike come from different tables or passages of the source.

Amino acid sequences for entries named in this document (tags omitted). A change or cut given only in a name is not applied to a line headed by its entry. Chains listed by the source or under a name are the forms on record and can include a tag or linker. Residues count along the entry.
UniProt P00533, 25-1210 limits assumed: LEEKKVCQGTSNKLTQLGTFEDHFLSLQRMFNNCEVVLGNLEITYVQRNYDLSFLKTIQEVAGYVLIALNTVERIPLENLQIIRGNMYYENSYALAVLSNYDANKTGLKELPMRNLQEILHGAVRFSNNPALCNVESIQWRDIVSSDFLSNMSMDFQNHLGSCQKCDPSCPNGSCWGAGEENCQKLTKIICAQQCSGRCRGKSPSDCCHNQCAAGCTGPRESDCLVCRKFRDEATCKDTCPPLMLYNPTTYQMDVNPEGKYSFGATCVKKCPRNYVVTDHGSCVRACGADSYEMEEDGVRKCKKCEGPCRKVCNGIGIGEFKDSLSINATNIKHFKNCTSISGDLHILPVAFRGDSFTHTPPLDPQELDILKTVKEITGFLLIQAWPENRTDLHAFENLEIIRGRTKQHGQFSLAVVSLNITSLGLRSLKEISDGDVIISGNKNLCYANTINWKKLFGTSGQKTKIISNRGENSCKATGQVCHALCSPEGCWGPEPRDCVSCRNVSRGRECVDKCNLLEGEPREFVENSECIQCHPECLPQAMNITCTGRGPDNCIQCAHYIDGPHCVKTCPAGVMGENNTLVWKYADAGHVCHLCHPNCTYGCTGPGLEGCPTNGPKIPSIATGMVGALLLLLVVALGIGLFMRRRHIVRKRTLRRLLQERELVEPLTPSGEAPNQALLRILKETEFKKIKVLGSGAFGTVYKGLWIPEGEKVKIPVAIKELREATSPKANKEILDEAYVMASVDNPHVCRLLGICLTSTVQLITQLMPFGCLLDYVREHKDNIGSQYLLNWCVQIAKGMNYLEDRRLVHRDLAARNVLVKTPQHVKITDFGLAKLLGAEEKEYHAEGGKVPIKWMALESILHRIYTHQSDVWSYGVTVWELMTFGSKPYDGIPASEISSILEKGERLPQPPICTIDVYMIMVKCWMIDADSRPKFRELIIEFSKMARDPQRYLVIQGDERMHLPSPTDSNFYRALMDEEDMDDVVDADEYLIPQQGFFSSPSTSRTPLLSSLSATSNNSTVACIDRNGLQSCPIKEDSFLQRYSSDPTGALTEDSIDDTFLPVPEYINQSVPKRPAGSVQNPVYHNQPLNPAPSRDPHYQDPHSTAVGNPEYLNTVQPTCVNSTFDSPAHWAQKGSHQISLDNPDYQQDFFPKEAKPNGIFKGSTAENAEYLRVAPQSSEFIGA
UniProt P00533, 25-1210 C797S/L858R limits assumed: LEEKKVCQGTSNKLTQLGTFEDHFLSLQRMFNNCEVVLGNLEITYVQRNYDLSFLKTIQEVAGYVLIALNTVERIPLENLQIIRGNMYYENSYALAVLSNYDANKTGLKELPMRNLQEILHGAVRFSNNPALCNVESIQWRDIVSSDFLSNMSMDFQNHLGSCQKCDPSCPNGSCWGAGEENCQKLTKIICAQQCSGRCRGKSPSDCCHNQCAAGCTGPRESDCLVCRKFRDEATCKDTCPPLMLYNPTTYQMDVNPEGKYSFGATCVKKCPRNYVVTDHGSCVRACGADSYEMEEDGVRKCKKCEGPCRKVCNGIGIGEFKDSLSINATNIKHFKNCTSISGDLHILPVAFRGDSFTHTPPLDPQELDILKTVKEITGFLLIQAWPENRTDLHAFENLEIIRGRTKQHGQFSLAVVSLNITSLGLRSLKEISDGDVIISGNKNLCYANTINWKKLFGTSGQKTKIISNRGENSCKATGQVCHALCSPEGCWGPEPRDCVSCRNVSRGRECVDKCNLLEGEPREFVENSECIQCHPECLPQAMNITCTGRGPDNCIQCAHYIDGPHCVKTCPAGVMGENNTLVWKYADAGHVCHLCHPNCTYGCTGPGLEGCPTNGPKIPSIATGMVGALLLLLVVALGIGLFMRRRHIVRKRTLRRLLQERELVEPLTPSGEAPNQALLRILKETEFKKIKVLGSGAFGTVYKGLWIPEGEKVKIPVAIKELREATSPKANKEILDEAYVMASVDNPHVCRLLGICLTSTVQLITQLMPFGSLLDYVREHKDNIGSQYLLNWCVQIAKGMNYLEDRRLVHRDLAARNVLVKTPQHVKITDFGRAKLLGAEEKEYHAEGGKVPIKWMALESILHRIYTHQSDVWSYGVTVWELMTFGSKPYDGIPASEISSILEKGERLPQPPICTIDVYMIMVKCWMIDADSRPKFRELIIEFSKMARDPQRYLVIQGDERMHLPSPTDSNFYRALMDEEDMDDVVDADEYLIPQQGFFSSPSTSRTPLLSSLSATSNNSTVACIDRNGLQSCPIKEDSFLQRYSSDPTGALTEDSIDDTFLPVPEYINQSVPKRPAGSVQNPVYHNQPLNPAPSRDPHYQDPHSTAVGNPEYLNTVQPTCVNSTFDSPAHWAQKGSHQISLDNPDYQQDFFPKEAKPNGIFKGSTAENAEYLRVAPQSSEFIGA
UniProt P00533, 25-1210 T790M/C797S/L858R limits assumed: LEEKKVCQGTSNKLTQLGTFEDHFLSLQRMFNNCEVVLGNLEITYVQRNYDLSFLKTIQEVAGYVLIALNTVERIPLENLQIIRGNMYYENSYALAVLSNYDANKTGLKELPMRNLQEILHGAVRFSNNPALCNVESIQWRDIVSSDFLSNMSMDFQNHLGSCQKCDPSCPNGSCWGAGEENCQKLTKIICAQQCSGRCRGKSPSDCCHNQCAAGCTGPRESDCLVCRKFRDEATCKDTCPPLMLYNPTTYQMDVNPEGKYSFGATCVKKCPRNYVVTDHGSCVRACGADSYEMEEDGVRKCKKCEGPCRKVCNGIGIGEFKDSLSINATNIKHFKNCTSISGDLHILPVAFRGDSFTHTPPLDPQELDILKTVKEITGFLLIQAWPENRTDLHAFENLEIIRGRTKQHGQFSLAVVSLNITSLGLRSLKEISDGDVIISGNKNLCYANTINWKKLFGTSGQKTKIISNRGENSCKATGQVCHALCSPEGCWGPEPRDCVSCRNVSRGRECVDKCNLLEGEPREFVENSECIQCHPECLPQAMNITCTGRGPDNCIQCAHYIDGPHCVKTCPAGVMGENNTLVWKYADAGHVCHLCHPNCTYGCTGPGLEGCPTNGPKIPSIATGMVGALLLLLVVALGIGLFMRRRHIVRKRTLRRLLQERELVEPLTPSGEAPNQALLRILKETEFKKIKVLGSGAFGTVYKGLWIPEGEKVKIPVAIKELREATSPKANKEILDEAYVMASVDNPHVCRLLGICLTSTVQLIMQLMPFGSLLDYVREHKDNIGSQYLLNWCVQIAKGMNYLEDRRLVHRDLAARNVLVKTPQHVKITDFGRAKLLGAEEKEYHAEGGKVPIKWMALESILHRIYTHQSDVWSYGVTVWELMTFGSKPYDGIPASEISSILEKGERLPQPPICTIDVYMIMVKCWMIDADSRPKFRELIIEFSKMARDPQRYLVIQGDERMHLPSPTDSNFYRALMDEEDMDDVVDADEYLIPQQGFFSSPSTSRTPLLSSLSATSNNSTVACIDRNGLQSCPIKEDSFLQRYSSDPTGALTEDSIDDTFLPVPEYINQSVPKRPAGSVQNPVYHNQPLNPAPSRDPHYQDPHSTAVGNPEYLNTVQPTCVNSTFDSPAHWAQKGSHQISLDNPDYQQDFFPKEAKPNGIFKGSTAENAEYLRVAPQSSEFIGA
UniProt P00533, with tags, fused parts or gaps DEL746-750/C797S limits assumed: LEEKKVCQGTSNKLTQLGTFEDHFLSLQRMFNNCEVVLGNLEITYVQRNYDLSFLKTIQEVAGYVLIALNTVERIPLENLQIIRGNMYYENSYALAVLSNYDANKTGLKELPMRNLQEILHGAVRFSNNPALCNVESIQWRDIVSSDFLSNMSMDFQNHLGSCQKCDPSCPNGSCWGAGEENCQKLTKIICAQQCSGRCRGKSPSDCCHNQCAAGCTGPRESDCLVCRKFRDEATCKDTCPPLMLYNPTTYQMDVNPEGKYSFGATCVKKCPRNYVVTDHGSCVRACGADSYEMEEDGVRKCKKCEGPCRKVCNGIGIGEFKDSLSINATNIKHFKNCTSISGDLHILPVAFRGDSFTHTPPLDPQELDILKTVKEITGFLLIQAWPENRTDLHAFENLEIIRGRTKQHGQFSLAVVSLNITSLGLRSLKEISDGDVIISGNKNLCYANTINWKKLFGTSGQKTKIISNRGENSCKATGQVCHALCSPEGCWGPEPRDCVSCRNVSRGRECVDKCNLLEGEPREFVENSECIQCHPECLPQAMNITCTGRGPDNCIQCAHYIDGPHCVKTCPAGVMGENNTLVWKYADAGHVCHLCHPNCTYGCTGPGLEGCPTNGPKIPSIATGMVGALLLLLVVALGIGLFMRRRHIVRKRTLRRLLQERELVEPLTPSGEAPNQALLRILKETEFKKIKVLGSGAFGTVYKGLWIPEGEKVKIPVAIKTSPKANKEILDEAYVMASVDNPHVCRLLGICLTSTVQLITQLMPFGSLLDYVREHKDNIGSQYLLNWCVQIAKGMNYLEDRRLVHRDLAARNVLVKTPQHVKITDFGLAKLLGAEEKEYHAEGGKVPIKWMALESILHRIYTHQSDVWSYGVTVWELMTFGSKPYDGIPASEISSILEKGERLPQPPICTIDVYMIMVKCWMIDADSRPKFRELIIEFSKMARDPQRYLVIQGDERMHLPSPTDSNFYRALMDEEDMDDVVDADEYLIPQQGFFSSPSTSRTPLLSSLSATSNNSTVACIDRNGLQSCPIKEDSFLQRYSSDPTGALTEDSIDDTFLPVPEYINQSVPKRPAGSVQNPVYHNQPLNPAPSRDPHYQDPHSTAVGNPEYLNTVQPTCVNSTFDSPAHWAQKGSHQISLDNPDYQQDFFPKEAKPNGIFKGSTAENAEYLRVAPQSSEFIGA
UniProt P00533, with tags, fused parts or gaps DEL746-750/T790M/C797S limits assumed: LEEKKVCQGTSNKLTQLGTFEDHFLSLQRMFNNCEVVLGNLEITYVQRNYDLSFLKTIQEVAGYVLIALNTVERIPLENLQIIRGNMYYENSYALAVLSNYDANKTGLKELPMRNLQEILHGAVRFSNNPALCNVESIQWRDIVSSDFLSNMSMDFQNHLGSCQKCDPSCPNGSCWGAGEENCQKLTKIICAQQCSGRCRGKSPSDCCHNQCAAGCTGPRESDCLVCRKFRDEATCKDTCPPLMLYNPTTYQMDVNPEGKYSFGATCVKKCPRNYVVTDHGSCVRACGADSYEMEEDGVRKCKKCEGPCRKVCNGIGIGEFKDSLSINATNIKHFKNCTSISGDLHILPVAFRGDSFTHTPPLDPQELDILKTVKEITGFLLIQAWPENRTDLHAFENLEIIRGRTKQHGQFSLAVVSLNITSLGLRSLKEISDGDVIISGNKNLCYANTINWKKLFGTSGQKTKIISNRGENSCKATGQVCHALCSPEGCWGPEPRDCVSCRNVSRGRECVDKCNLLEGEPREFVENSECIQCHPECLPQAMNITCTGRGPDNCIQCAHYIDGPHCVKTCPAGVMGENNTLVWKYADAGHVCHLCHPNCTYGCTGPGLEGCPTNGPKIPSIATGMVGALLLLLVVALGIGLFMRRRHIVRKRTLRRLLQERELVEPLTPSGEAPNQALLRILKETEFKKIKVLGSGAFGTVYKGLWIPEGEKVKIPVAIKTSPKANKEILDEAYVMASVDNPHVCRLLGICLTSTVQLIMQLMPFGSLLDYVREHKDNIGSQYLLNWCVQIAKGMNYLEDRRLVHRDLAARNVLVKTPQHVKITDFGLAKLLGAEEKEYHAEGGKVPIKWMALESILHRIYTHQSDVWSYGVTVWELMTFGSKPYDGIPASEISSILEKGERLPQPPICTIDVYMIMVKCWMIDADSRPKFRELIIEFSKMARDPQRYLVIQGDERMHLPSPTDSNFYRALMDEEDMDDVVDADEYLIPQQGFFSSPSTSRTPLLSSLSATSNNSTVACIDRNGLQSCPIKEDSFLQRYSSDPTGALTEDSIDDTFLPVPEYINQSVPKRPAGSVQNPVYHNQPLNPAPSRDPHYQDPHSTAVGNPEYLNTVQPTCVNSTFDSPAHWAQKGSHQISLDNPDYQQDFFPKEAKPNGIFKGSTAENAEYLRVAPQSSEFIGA

What was measured:
[1] = target: EGFR LRTMCS (L858R/T790M/C797S) (Homo sapiens, UniProt P00533, C797S/L858R/T790M); assay: Biochemical EGFR kinase assay (Lance Ultra TR-FRET), triple mutant L858R/T790M/C797S
EGFR WT = EGFR WT (Homo sapiens, UniProt P00533); assay: Biochemical EGFR kinase assay (Lance Ultra TR-FRET), wildtype
EGFR LRCS (L858R/C797S) = EGFR LRCS (L858R/C797S) (Homo sapiens, UniProt P00533, C797S/L858R); assay: Biochemical EGFR kinase assay (Lance Ultra TR-FRET), double mutant L858R/C797S
EGFR D19CS (del19/C797S) = EGFR D19CS (del19/C797S) (Homo sapiens, UniProt P00533, C797S/DEL746-750); assay: Biochemical EGFR kinase assay (Lance Ultra TR-FRET), double mutant del19/C797S
[2] = target: EGFR D19TMCS (del19/T790M/C797S) (Homo sapiens, UniProt P00533, C797S/DEL746-750/T790M); assay: Biochemical EGFR kinase assay (Lance Ultra TR-FRET), triple mutant del19/T790M/C797S
[3] = read-out: IC50, EGFR LRTMCS, 1 mM, ATP 1 mM, EGFR L858R/T790M/C797S
[4] = read-out: IC50, EGFR LRTMCS, Km, ATP at Km, EGFR L858R/T790M/C797S
[5] = read-out: IC50, EGFR WT, 1 mM, ATP 1 mM, EGFR wildtype
[6] = read-out: IC50, EGFR WT, Km, ATP at Km, EGFR wildtype
[7] = read-out: IC50, EGFR-LRCS, 1 mM, ATP 1 mM, EGFR L858R/C797S
[8] = read-out: IC50, EGFR-LRCS, Km, ATP at Km, EGFR L858R/C797S
[9] = read-out: IC50, EGFR-D19CS, 1 mM, ATP 1 mM, EGFR del19/C797S
[10] = read-out: IC50, EGFR-D19CS, Km, ATP at Km, EGFR del19/C797S
[11] = read-out: IC50, EGFR D19TMCS, Km, ATP at Km, EGFR del19/T790M/C797S
[12] = read-out: EGFR LRTMCS IC50, ATP 1 mM
[13] = read-out: EGFR LRTMCS IC50, ATP Km
[14] = read-out: EGFR WT IC50, ATP 1 mM
[15] = read-out: EGFR LRCS IC50, ATP 1 mM
[16] = read-out: EGFR LRCS IC50, ATP Km
[17] = read-out: EGFR D19CS IC50, ATP 1 mM
[18] = read-out: EGFR D19CS IC50, ATP Km
[19] = read-out: EGFR D19TMCS IC50, ATP 1 mM
[20] = read-out: EGFR D19TMCS IC50, ATP Km

SMILES | IC50 [1, 3] | IC50 [1, 4] | IC50 (EGFR WT; [5]) | IC50 (EGFR WT; [6]) | IC50 (EGFR LRCS (L858R/C797S); [7]) | IC50 (EGFR LRCS (L858R/C797S); [8]) | IC50 (EGFR D19CS (del19/C797S); [9]) | IC50 (EGFR D19CS (del19/C797S); [10]) | IC50 [2, 11] | IC50 [1, 12] | IC50 [1, 13] | IC50 (EGFR WT; [14]) | IC50 (EGFR WT; read-out: EGFR WT IC50, ATP Km) | IC50 (EGFR LRCS (L858R/C797S); [15]) | IC50 (EGFR LRCS (L858R/C797S); [16]) | IC50 (EGFR D19CS (del19/C797S); [17]) | IC50 (EGFR D19CS (del19/C797S); [18]) | IC50 [2, 19] | IC50 [2, 20]
Cc1nn(C)c2c1-c1nccc(n1)Nc1cc(c(-c3ncc(CN4C[C@@H](CS(C)(=O)=O)[C@H]4C)cc3F)cn1)N[C@@H](C)CCO2 | < 10 nM | < 10 nM | > 1000 nM | 10 to 100 nM | 10 to 100 nM | < 10 nM | 10 to 100 nM | < 10 nM | < 10 nM |  |  |  |  |  |  |  |  |  | 
Cc1nn(C)c2c1-c1nccc(n1)Nc1cc(c(-c3ccc(C(C)(C)F)cn3)cn1)N[C@@H](C)CCO2 | < 10 nM | < 10 nM | > 1000 nM | 10 to 100 nM | 10 to 100 nM | < 10 nM | 10 to 100 nM | < 10 nM | < 10 nM |  |  |  |  |  |  |  |  |  | 
Cc1nn(C)c2c1-c1nccc(n1)Nc1cc(c(-c3ncc(CN4CC5(C4)CS(=O)(=O)C5)cc3F)cn1)N[C@@H](C)CCO2 | < 10 nM | < 10 nM | > 1000 nM | < 10 nM | 10 to 100 nM | < 10 nM | < 10 nM | < 10 nM | < 10 nM |  |  |  |  |  |  |  |  |  | 
C[C@H]1CCOc2c(cnn2CC(F)(F)F)-c2nccc(n2)Nc2cc(c(-c3ccn(C(F)F)n3)cn2)N1 |  |  |  |  |  |  |  |  |  | < 10 nM | < 10 nM | > 1000 nM | 100 to 1000 nM | > 1000 nM | 100 to 1000 nM | > 1000 nM | 100 to 1000 nM | < 10 nM | < 10 nM
Cc1nn(C)c2c1-c1nccc(n1)Nc1cc(c(-c3cc(C(C)(C)O)ccn3)cn1)N[C@@H](C)CCO2 | 10 to 100 nM | < 10 nM | > 1000 nM | 10 to 100 nM | 100 to 1000 nM | < 10 nM | 10 to 100 nM | < 10 nM | < 10 nM |  |  |  |  |  |  |  |  |  | 
Cn1nc(-c2cnc3cc2NC[C@H](F)COc2c(cnn2C)-c2nccc(n2)N3)cc1C(F)(F)F |  |  |  |  |  |  |  |  |  | < 10 nM | < 10 nM | > 1000 nM | 100 to 1000 nM | 100 to 1000 nM | 10 to 100 nM | 100 to 1000 nM | 10 to 100 nM | < 10 nM | < 10 nM
C[C@H]1CCNc2cc(ncc2-c2cc(OC(F)F)ccn2)Nc2ccnc(n2)-c2cnn(C)c2O1 |  |  |  |  |  |  |  |  |  | < 10 nM | < 10 nM | > 1000 nM | 10 to 100 nM | 100 to 1000 nM | < 10 nM | 10 to 100 nM | < 10 nM | < 10 nM | < 10 nM
C[C@H]1CCOc2c(cnn2C)-c2nccc(n2)Nc2cc(c(-c3ccn(C(F)F)n3)cn2)N1 |  |  |  |  |  |  |  |  |  | < 10 nM | < 10 nM | > 1000 nM | 10 to 100 nM | 100 to 1000 nM | < 10 nM | 10 to 100 nM | < 10 nM | < 10 nM | < 10 nM
Cc1cn(C)nc1-c1cnc2cc1N[C@@H](C)CCOc1c(cnn1C)-c1nccc(n1)N2 |  |  |  |  |  |  |  |  |  | < 10 nM | < 10 nM | > 1000 nM | 10 to 100 nM | 100 to 1000 nM | < 10 nM | 100 to 1000 nM | < 10 nM | < 10 nM | < 10 nM
CC(C)n1ncc2c1OCC[C@H](C)Nc1cc(ncc1-c1ccn(C(F)F)n1)Nc1ccnc-2n1 |  |  |  |  |  |  |  |  |  | 10 to 100 nM | < 10 nM | > 1000 nM | 10 to 100 nM | > 1000 nM | 10 to 100 nM | > 1000 nM | 100 to 1000 nM | 10 to 100 nM | < 10 nM
